Measurements reported in ChEMBL document CHEMBL1135380, “Synthesis and structure-activity relationship of 2-(aminoalkyl)-2,3,3a,8-tetrahydrodibenzo[c,f]isoxazolo[2,3-a]azepine derivatives: a novel series of 5-HT(2A/2C) receptor antagonists. Part 1” (Bioorg Med Chem Lett, 2002).

Amino acid sequences for entries named in this document (tags omitted).
UniProt P61169, whole entry: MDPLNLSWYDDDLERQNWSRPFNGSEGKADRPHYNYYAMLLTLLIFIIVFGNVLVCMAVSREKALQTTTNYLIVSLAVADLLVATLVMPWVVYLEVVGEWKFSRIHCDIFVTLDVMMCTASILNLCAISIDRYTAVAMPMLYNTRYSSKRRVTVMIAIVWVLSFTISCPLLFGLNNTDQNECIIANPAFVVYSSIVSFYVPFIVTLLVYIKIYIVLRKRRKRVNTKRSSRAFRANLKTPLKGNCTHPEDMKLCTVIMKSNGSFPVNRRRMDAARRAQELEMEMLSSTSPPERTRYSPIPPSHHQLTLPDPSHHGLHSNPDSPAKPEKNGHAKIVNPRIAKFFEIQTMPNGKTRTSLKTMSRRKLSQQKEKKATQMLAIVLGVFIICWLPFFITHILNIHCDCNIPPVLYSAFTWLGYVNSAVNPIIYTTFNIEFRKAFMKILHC

Target: D(2) dopamine receptor (Rattus norvegicus, UniProt P61169)
Experiment: Binding affinity for rat Dopamine receptor D2

CN1CCN2c3ccccc3Cc3ccccc3C2C1 (stereo unspecified) [MIANSERIN]
IC50: 3.55 µM
